Measured affinities in a library of Ab-14 light chain variants

Reference: Li et al. 2023, doi:10.1038/s41467-023-39022-2. File: FLAb, binding data.

The target is the same throughout: PDVDLGDISGINAS, from the HR2 region of SARS-CoV-2 spike.

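The parent was found by panning a naive human phage display library on the peptide. These sequences belong to a second round, designed from the earlier measurements on random variants of the parent. Their group label is 14L_Ctrl (Ctrl: baseline library sampled from a position-specific scoring matrix, with some repeated check sequences). AlphaSeq pools MATa yeast showing the antibodies with MATalpha yeast showing the peptide. After mating in shaken culture at 30 °C for 16 h, diploids were selected and their barcode pairs sequenced. Read counts were normalised to the haploid input and turned into Kd by a linear fit to BCL2-family pairs of known affinity, for each replicate. There are six technical replicates.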

Parent scFv Ab-14: VH joined to VL by the linker GGGGSGGGGSGGGGS. Changes lie in the light chain CDRs alone.
VH: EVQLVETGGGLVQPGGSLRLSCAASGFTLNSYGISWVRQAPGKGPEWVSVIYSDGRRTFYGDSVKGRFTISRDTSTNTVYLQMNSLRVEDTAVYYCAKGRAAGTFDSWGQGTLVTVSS
VL: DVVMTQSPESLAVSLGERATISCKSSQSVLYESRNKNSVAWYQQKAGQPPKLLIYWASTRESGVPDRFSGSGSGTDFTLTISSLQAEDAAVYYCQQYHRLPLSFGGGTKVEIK

The whole VL of each variant is written out. Affinities are written as log10 Kd with Kd in nM; a lower number is a better binder. "ND" marks a missing value. The strain was present, yet no cells mated with the target were sequenced in that replicate, which points to weak or no binding. Empty control strains, which show no peptide, gave a signal in 4% of pairings with all light chain designs; the median was 2.64 and 95% of these signals were weaker than 1.59. No background was subtracted. Also given: how often the same scFv was detected with the empty control strains, with their mean in brackets. A sequence measured in both rounds can read differently, since the two assays cover different ranges. Some sequences occur more than once in the pool; their replicates are listed entry by entry, parted by semicolons. In the paper, a design with two or fewer of six values counts as a poor binder. The parent sequence was in this pool as ten entries: three were never detected, three once, and four in most replicates, with averages from 0.34 to 2.37.

| VL | replicates, log10 nM | empty controls |
|---|---|---|
| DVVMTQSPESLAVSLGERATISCKSSQSVLYESRNKNSVAWYQQKAGQPPKLLIYWASHRESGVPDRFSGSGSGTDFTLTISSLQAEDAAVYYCQQYHRLPLSFGGGTKVEIK | 2.03 / 2.15 / 1.65 / 1.61 / 1.92 / 2.94 | 1 of 18 (2.71) |
| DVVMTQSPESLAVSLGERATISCKSSQSVLYESRNKNSVAWYQQKAGQPPKLLIYNASTRESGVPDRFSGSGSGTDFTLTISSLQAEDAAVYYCQQGHRLPWSFGGGTKVEIK | ND / ND / ND / ND / ND / ND | 1 of 18 (1.97) |
| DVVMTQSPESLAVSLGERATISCKSSQSVYYESRNKNSVAWYQQKAGQPPKLLIYWASTRPSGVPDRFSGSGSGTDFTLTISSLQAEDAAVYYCQQYHRLPPSFGGGTKVEIK | ND / ND / ND / ND / ND / ND | 2 of 18 (2.46) |
| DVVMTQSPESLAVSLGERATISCKSSQSVLYESRNSNSVAWYQQKAGQPPKLLIYEASVRESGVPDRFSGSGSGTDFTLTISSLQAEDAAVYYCQQYHGLPLMFGGGTKVEIK | 1.31 / 0.89 / 1.48 / 0.93 / 1.31 / 1.32 | 0 of 18 |
| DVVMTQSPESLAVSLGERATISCKSSLHDLDESRNEPSVAWYQQKAGQPPKLLIYWASTRESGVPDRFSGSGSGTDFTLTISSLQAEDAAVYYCQQVHRDPLSFGGGTKVEIK | ND / ND / ND / ND / ND / ND | 0 of 18 |
| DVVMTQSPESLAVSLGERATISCKSSQSVLPEWRNKNSVAWYQQKAGQPPKLLIYWASTRESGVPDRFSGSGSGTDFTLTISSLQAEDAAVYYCQQYHRLPLYFGGGTKVEIK | ND / ND / ND / ND / 2.68 / ND | 2 of 18 (2.39) |
| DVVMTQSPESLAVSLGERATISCKISQGVLYESRNKNSVAWYQQKAGQPPKLLIYWASTRESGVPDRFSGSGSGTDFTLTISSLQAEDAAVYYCQQYHVLPLSFGGGTKVEIK | 1.46 / 2.27 / ND / 2.29 / ND / 1.31 | 1 of 18 (1.83) |
| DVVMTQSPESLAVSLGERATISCKSSQSVLYEDRNKNSVAWYQQKAGQPPKLLIYWASTQESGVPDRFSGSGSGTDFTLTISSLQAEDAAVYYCQQYHRLPLSFGGGTKVEIK | ND / ND / ND / ND / ND / ND | 0 of 18 |
| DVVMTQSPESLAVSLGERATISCKSSQSVLYESRNKNSVAWYQQKAGQPPKLLIYWASTREDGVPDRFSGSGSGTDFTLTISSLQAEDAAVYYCQQYHRLPLSFGGGTKVEIK | ND / ND / 1.27 / ND / 2.14 / ND | 0 of 18 |
| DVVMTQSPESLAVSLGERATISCKISQSVLYESRNKNSVAWYQQKAGQPPKLLIYDASTRETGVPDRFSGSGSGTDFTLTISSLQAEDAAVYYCQQYHRLPLSFGGGTKVEIK | -0.22 / -0.34 / -0.44 / -0.39 / -0.52 / -0.29 | 1 of 18 (3.02) |
| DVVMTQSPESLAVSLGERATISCKSSQSVLYESRNKNSVAWYQQKAGQPPKLLIYWASTRESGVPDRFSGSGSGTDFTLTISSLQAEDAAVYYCQQYHRWPLSFGGGTKVEIK | ND / ND / ND / ND / ND / ND; ND / ND / 3.33 / ND / 3.36 / ND; ND / ND / 3.17 / ND / ND / ND; ND / 2.54 / ND / ND / 2.87 / 2.93; 2.63 / 1.39 / 2.12 / ND / 2.43 / 1.92 | 5 of 90 (2.63) |
| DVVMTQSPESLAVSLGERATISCKSQQSVLYASRNKNSVAWYQQKAGQPPKLLIYWASTRESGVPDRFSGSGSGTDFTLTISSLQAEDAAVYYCQQYHRLPLSFGGGTKVEIK | ND / ND / ND / ND / 2.54 / ND | 0 of 18 |
| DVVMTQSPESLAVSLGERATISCKSSESVLYESRNKNSVAWYQQKAGQPPKLLIYWASTRSSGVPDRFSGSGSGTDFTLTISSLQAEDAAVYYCQQYHRLPLSFGGGTKVEIK | ND / 2.58 / 1.41 / 1.64 / 1.55 / 2.57 | 0 of 18 |
| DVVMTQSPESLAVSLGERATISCKSSQSILDESRNKNSIAWYQQKAGQPPKLLIYTASTRESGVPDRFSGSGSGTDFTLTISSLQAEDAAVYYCQQYHRLPLSFGGGTKVEIK | 1.29 / 1.18 / 0.49 / 1.00 / 1.46 / 1.58 | 1 of 18 (1.87) |
| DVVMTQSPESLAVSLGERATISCKSSQSVLYESNNKNSVAWYQQKAGQPPKLLIYNASTREMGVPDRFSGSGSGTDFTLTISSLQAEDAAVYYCQQYHRLPLSFGGGTKVEIK | 1.42 / 0.40 / 1.33 / 0.95 / ND / 1.14 | 0 of 18 |
| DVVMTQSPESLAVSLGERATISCKSSQSVLKESRNENSVAWYQQKAGQPPKLLIYWASTRESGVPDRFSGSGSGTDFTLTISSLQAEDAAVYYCQQYCRLPLSFGGGTKVEIK | ND / ND / ND / ND / ND / ND | 0 of 18 |
| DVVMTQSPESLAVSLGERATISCKSSQSVWYESRNKNSVAWYQQKAGQPPKLLIYWASKREDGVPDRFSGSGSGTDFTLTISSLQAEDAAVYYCYQYHRLPLSFGGGTKVEIK | ND / ND / ND / ND / ND / ND | 1 of 18 (1.51) |

Top 2 of the variants detected in all replicates, tightest first:

VL	replicates, log10 nM	empty controls
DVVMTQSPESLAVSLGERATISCKISQSVLYESRNKNSVAWYQQKAGQPPKLLIYDASTRETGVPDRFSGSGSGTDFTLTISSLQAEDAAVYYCQQYHRLPLSFGGGTKVEIK	-0.22 / -0.34 / -0.44 / -0.39 / -0.52 / -0.29	1 of 18 (3.02)
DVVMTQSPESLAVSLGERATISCKSSQSILDESRNKNSIAWYQQKAGQPPKLLIYTASTRESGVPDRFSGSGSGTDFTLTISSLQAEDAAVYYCQQYHRLPLSFGGGTKVEIK	1.29 / 1.18 / 0.49 / 1.00 / 1.46 / 1.58	1 of 18 (1.87)